Experimental data as given in published antibiotic growth screens (doi:10.1038/s41589-023-01349-8).
The list shows a part of the results.

The molecules below were run on A. baumannii ATCC 17978 (assay: relative growth (fraction of control); higher = less inhibition). Conditions: 50 µM.

| SMILES | relative growth |
| --- | --- |
| C=CCOC(=O)[C@@H]1[C@H]2C(=O)O[C@H](c3ccccc3)[C@H](c3ccccc3)N2[C@H](c2ccc(OCCOC(=O)[C@H]3C[C@H]4C(=O)N[C@@H](CC(C)C)C(=O)N4[C@H]3c3cccc(OCCO)c3)cc2)[C@@]12C(=O)Nc1ccc(I)cc12 | 1.12 |
| C[C@H](NC(=O)C[C@@H]1CC[C@@H](NC(=O)CN2CCOCC2)[C@H](CO)O1)c1ccccc1 | 0.956 |
| Nc1ncnc2c1ncn2C1O[C@H](COP(=O)(O)O)[C@@H](O)[C@H]1O (some centres not stated) | 0.898 |
| CCCNC(=O)N1C[C@H](O)COC[C@H]2O[C@H](CC(=O)NCCCN3CCOCC3)CC[C@@H]21 | 1.19 |
| COc1cccc(S(=O)(=O)Nc2ccc3c(c2)[C@H]2C[C@H](CC(=O)NC4CCCCC4)O[C@H](CO)[C@H]2O3)c1 | 0.95 |
| NC(=O)c1ccc[n+]([C@@H]2O[C@H](COP(=O)([O-])OP(=O)(O)OC[C@H]3O[C@@H](n4cnc5c(N)ncnc54)[C@H](O)[C@@H]3O)[C@@H](O)[C@H]2O)c1 | 1.02 |
| O=C(C[C@H]1CC[C@H](NC(=O)C2CC2)[C@@H](CO)O1)NCCCN1CCOCC1 | 0.948 |
| O=C(Cc1ccccn1)NCC[C@H]1CC[C@@H](NC(=O)CN2CCOCC2)[C@H](CO)O1 | 0.963 |
| Cc1ccc(S(=O)(=O)N2C[C@@H](O)COC[C@H]3O[C@H](CC(=O)NCc4ccc(Cl)c(Cl)c4)CC[C@@H]32)cc1 | 1 |
| O=C(CCCCCCC(=O)Nc1ccc([C@H]2O[C@@H](CSc3nc(-c4ccccc4)c(-c4ccccc4)o3)C[C@H](c3ccc([N+](=O)[O-])cc3)O2)cc1)NO | 1.41 |
| CN(c1ccc(N)cc1[N+](=O)[O-])S(C)(=O)=O | 1 |
| COc1cccc(S(=O)(=O)N2C[C@H](O)COC[C@H]3O[C@H](CC(=O)N4CCOCC4)CC[C@@H]32)c1 | 0.894 |
| COc1c2ccoc2cc2oc(C)cc(=O)c12 | 1.14 |
| [N-]=[N+]=NCc1ccccc1C[C@]1(C(=O)NCCN2CCOCC2)COC(c2ccc(OCCCO)cc2)=N1 | 0.697 |
| Cc1ccc(S(=O)(=O)NCC[C@H]2CC[C@H](NS(=O)(=O)c3ccccc3Cl)[C@@H](CO)O2)cc1 | 0.942 |
| C[C@@H]1CN([C@H](C)CO)S(=O)(=O)c2ccc(C#CCN(C)C)cc2O[C@H]1CN(C)C(=O)Nc1ccccc1F | 0.948 |
| C[C@H]1CN([C@@H](C)CO)S(=O)(=O)c2ccc(C#CC(C)(C)O)cc2O[C@H]1CN(C)C(=O)C1CCCCC1 | 0.967 |
| CCCCCC(=O)Cc1cc(O)cc(O)c1C(=O)Oc1cc(CC(=O)CCCCC)c(C(=O)O)c(OC)c1 | 1.11 |
| O=C(O)C[C@@H]1CC[C@H]2[C@@H](COC[C@H](O)CN2S(=O)(=O)c2ccc(F)cc2)O1 | 1.05 |
| COc1ccc(-c2coc3cc(O)ccc3c2=O)c(O)c1O | 1.09 |
| CC(=O)O[C@@]12CO[C@@H]1C[C@H](O)[C@@]1(C)C(=O)[C@H](O)C3=C(C)[C@@H](OC(=O)[C@H](O)[C@@H](NC(=O)OC(C)(C)C)c4ccccc4)C[C@@](O)([C@@H](OC(=O)c4ccccc4)C12)C3(C)C.O.O.O (some centres not stated) | 1.29 |
| C[C@H](CO)N1C[C@H](C)[C@H](CN(C)S(=O)(=O)c2cn(C)cn2)Oc2cc(C3=CCCC3)ccc2S1(=O)=O | 1.07 |
| COCC#Cc1ccc2c(c1)O[C@@H](CN(C)S(=O)(=O)c1ccc(C)cc1)[C@@H](C)CN([C@@H](C)CO)S2(=O)=O | 1.02 |
| C=CC[C@@H](CC(=O)NCCO)C(=O)N[C@@H](COC(=O)[C@@H](CC=C)CC(=O)OC(C)(C)C)Cc1ccccc1 | 1.02 |

| SMILES | relative growth |
| --- | --- |
| CN[C@@H]1[C@H](O)[C@H](NC)[C@H]2O[C@@]3(O)C(=O)C[C@@H](C)O[C@H]3O[C@@H]2[C@H]1O.Cl.Cl | 0.538 |
| NCCSC12CC3CC(CC(C3)C1)C2 | 0.899 |
| CC(C)CN1C(=O)C[C@@H](N2CCOCC2)C1=O | 0.979 |
| O=C(O)c1ccc(-n2nc(-c3ccccc3O)nc2-c2ccccc2O)cc1 | 1.15 |
| CC(C)(C)NCC(O)COc1cccc2c1C[C@H](O)[C@H](O)C2 (mixture of isomers) | 0.922 |
| COc1cc2nc(N3CCCN(Cc4ccccc4)CC3)nc(NC3CCN(Cc4ccccc4)CC3)c2cc1OC | 0.931 |
| CO[C@H](CN(C)C(=O)c1ccc2c(c1)OCO2)[C@@H](C)CN([C@H](C)CO)S(=O)(=O)c1ccc(C)cc1 | 1.07 |
| Cn1c(=O)c2c(NCCO)ccnc2n(C)c1=O | 0.908 |
| CN1C(C(=O)Nc2ccccn2)=C(O)c2ccccc2S1(=O)=O | 1.19 |
| COc1c(C)c2c(c(O)c1C/C=C(\C)CCC(=O)OCCN1CCOCC1)C(=O)OC2 | 0.919 |
| C[C@H](O)C#Cc1cnc2c(c1)C(=O)N([C@@H](C)CO)C[C@@H](C)[C@H](CN(C)C(=O)Nc1ccc(C(F)(F)F)cc1)O2 | 0.992 |
| COCCOC(=O)C1=C(C)NC(C)=C(C(=O)OC(C)C)C1c1cccc([N+](=O)[O-])c1 (configuration not stated) | 1.21 |
| NC(=O)N1CCC(=O)Nc2ccccc21 | 1.01 |
| CCS(=O)(=O)NCC[C@@H]1CC[C@@H](NC(=O)Cc2ccccn2)[C@H](CO)O1 | 1.02 |
| CC[N+](C)(C)c1cccc(O)c1.[Cl-] | 1.27 |
| O=C(C[C@H]1C=C[C@@H](NC(=O)Cc2ccccn2)[C@@H](CO)O1)NCCCN1CCOCC1 | 0.935 |
| C[C@H]1O[C@@H](O[C@H]2[C@@H](O)C[C@H](O[C@H]3[C@@H](O)C[C@H](O[C@H]4CC[C@]5(C)C6CC[C@]7(C)[C@@H](C8=CC(=O)OC8)CC[C@]7(O)C6CC[C@@H]5C4)O[C@@H]3C)O[C@@H]2C)C[C@H](O)[C@@H]1O (some centres not stated) | 1.01 |
| CSc1ccc(Sc2ccc(SC)cc2)cc1 | 1.08 |
| Cc1ccc(S(=O)(=O)N2C[C@H](O)COC[C@@H]3O[C@@H](CC(=O)NCc4ccc(Cl)c(Cl)c4)CC[C@H]32)cc1 | 0.875 |
| c1coc(-c2nc3ccccc3n2CCC2CCCCC2)c1 | 0.74 |
| CNC[C@@H](O)c1ccc(O)c(O)c1.O=C(O)C(O)C(O)C(=O)O | 1.08 |
| COCC#Cc1ccc2c(c1)O[C@@H](CN(C)S(=O)(=O)c1cccc(F)c1)[C@@H](C)CN([C@@H](C)CO)S2(=O)=O | 0.985 |
| C[C@H](CO)N1C[C@H](C)[C@H](CN(C)C(=O)c2ccccc2)Oc2cc(C#C[C@@H](C)O)ccc2S1(=O)=O | 0.955 |
| NC(=O)C[C@H]1Sc2ccccc2NC1=O | 0.938 |

| SMILES | relative growth |
| --- | --- |
| O=C1O[C@@H](c2ccccc2)[C@@H](c2ccccc2)N2[C@@H](c3ccc(OCCO)cc3)[C@]3(C(=O)Nc4ccc(C#CC5=CCCCC5)cc43)[C@@H](C(=O)N3CCCCCCC3)[C@H]12 | 0.999 |
| CNC[C@@H]1Oc2cc(C#CC(C)(C)O)ccc2S(=O)(=O)N([C@@H](C)CO)C[C@H]1C | 1.04 |
| OC[C@@H](O)[C@@H](O)[C@@H](O)[C@H](O)[C@@H](O)CO | 0.985 |
| COCCOC(=O)N1C(=O)[C@@]2(c3cc(C#CC4=CCCCC4)ccc31)[C@H](C(=O)N1CCc3cc(OC)c(OC)cc3C1)[C@H]1C(=O)O[C@H](c3ccccc3)[C@H](c3ccccc3)N1[C@@H]2c1ccc(O)cc1 | 1.09 |
| COc1cc2c(c3ccccc13)OC(C)(C)C=C2 | 1.07 |
| NNC(=O)C1[C@H]2CCCC[C@@H]12 (some centres not stated) | 0.887 |
| Cc1ccc(Oc2ccc(CN)cc2)cc1 | 0.673 |
| O=C(C[C@@H]1CC=CCC[C@@H](Cc2ccc(F)cc2)C(=O)OC[C@@H](Cc2c[nH]c3ccccc23)NC1=O)N[C@H](CO)Cc1ccccc1 | 0.818 |
| C=CCOC(=O)[C@H]1[C@@H]2C(=O)O[C@@H](c3ccccc3)[C@@H](c3ccccc3)N2[C@@H](c2ccc(OCCOC(=O)[C@H]3C[C@H]4C(=O)N[C@@H](CCCC[N+](C)(C)C)C(=O)N4[C@H]3c3cccc(OCCO)c3)cc2)[C@]12C(=O)Nc1ccccc12 | 1.44 |
| CC(C)CC#Cc1ccc2c(c1)O[C@@H](CN(C)S(=O)(=O)c1cccc(F)c1)[C@@H](C)CN([C@H](C)CO)S2(=O)=O | 1.15 |
| CO[C@H]1CN(C)C(=O)c2ccc(NC(=O)C3CC3)cc2OC[C@@H](C)N(C(=O)Cc2ccccn2)C[C@@H]1C | 1.23 |
| COc1ccc(S(=O)(=O)N2C[C@H](O)COC[C@H]3O[C@H](CC(=O)N[C@H]4CCN(Cc5ccccc5)C4)CC[C@@H]32)cc1 | 1.09 |
| COCC(=O)N1C[C@H](C)[C@@H](OC)CN(C)C(=O)c2cc(NC(=O)c3ccc(OC)cc3)ccc2OC[C@H]1C | 1.05 |
| CCCCCOC(=O)Nc1nc(=O)n(C2O[C@H](C)[C@@H](O)[C@H]2O)cc1F (some centres not stated) | 1.08 |
| C[C@@H]1CCCCO[C@@H](CN(C)Cc2ccc3c(c2)OCO3)[C@@H](C)CN([C@H](C)CO)C(=O)c2cc(NS(=O)(=O)c3ccc(Cl)cc3)ccc2O1 | 0.886 |
| Cn1c(=O)c2c(nc(S(C)(=O)=O)n2C)n(C)c1=O | 1.02 |
| C[C@H]1CN([C@@H](C)CO)S(=O)(=O)c2ccc(Br)cc2O[C@H]1CN(C)C(=O)c1cccc(F)c1 | 1.06 |
| CN(C)CC(=O)N[C@@H]1CC[C@@H](CC(=O)NCCN2CCCCC2)O[C@H]1CO | 1.03 |
| Cc1cccc(S(=O)(=O)N2C[C@@H](O)COC[C@H]3O[C@H](CC(=O)N4CCN(C)CC4)CC[C@@H]32)c1 | 1.1 |
| CC(C)(C)CC(C)(C)c1ccc(OCCOCC[N+](C)(C)Cc2ccccc2)cc1.[Cl-] | 0.163 |
| NC(=O)c1c(F)c(F)c(N)c(F)c1F | 0.885 |
| C[C@H]1CN([C@@H](C)CO)C(=O)Cc2cc(NC(=O)Nc3ccc(F)cc3)ccc2O[C@H]1CN(C)S(=O)(=O)c1ccc(Oc2ccccc2)cc1 | 1.14 |
| Cc1ncc(CO)c(CO)c1O.Cl | 0.857 |
| CC(N)(Cc1cccc(O)c1)C(=O)O (configuration not stated) | 1.1 |
